The species entered for this assay is Homo sapiens. As to the kind of experiment: Selectivity ratio of Ki for human CB1 receptor to Ki for human CB2 receptor.

Results on one compound are retold here after ChEMBL document CHEMBL1821585, “Fluorinated cannabinoid CB2 receptor ligands: synthesis and in vitro binding characteristics of 2-oxoquinoline derivatives” (Bioorg Med Chem, 2011).

Regarding `COc1ccc2cc(C(=O)NCCc3ccc(F)cc3)c(=O)[nH]c2c1OC`, the Ratio Ki is more than 2000.
